Active and inactive are the calls of the source. The calls are words filed in the database; no cut-off is given here.
Key:
[1] = biological target: Cruzipain (Trypanosoma cruzi) (UniProt P25779); assay: Inhibition of Trypanosoma cruzi cruzain assessed as colloidal aggregates particles formation after 5 mins by flow cytometry in presence of 0.001% Triton X-100
Outline: (§1)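 Particle (aggregate) formation was assessed by flow cytometry, with some samples checked by dynamic light scattering. The value is the lowest concentration tested at which particles were seen.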

Chains of the proteins cited; added tags and fusions are not shown. Lines headed by an entry give the natural chain unless they say otherwise; changes in a name come on top.
UniProt P25779: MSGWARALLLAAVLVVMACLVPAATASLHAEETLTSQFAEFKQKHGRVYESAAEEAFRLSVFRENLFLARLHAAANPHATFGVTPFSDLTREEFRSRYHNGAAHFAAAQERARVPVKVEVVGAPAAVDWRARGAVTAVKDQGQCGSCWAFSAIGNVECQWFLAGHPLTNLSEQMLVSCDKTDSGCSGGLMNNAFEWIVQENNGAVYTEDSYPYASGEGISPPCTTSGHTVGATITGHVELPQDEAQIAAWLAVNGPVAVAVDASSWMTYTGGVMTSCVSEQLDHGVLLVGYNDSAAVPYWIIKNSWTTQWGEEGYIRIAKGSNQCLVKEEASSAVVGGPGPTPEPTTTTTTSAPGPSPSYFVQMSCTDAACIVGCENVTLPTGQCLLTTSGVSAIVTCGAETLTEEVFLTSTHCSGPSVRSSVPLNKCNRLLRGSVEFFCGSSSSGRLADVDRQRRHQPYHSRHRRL

[2] = biological target: Cruzipain (Trypanosoma cruzi) (UniProt P25779); assay: Inhibition of Trypanosoma cruzi cruzain assessed as colloidal aggregates particles formation after 5 mins by flow cytometry; outline: as §1

## Nc1ccccc1-c1nnc(C(=O)NCCN2CCOCC2)o1
[1]
  Activity: inactive
[2]
  Activity: > 200 µM

Reference: ChEMBL document CHEMBL1151964, “Divergent modes of enzyme inhibition in a homologous structure-activity series” (J Med Chem, 2009)
